We go through one molecule from paper PMC6988089 (Journal of the American Chemical Society, 2019).

The chains behind the UniProt entries cited, without tags or fusion partners. Where a name states a change or a piece, a line headed by the entry shows the natural chain unless it says otherwise.
UniProt Q13185: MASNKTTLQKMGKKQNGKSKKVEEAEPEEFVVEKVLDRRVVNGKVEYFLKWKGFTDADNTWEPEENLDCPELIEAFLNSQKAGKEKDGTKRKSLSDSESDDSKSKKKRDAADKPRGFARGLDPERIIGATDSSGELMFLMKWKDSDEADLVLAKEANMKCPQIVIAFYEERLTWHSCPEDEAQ

This assay deals with wild-type CBX3 (human, UniProt Q13185 1-183). Put plainly: fluorescence polarisation. On the technique in general: Polarisation of emitted light reports the rotation of a fluorescent probe.

The term Kd denotes the equilibrium constant for the complex coming apart. ARTKQTARKSTGGKA (trimethyl-lysine at 9; tetramethylrhodamine (TAMRA) label, position not stated) [TAMRA-labeled H3K9me3 peptide] registered a Kd of 12.2 ± 0.2 µM.
